Patent US20250361280A1 (Protagonist Therapeutics, Inc., priority 2022, published 2025)

Tests used:
[1] = target: T1, ferroportin (Homo sapiens, UniProt Q9NP59); assay: FPN internalization assay (FPN activity assay), loss of ferroportin-GFP fluorescence; format: cell-based; conditions: Table 1D; HEK293 cells stably expressing ferroportin-GFP, compound at least 18 hours; read-out: IC50: FPN
T1 sequence (Q9NP59 1-571): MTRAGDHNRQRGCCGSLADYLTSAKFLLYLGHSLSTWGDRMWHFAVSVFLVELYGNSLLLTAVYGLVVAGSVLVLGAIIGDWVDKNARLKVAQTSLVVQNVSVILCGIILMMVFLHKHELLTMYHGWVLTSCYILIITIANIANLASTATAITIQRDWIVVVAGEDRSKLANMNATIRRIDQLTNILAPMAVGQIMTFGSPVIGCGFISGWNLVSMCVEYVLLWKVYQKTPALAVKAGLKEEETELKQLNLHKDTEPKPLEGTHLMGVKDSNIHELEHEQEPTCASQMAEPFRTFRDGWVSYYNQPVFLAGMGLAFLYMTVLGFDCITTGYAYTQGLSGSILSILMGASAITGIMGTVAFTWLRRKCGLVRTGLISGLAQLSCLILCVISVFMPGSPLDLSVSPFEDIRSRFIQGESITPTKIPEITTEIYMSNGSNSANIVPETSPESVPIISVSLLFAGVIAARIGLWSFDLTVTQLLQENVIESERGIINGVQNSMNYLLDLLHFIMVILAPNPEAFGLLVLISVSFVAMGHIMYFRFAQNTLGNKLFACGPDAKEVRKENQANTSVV

[2] = target: T1, ferroportin; assay: T47D internalization assay in presence of mouse serum albumin; format: cell-based; design: a human breast carcinoma adherent cell line which endogenously expresses ferroportin; host or cells: T47D; conditions: Table 1D; T47D cells, 0.5% mouse serum albumin, 1 hr incubation; read-out: IC50: T47D MSA
Outline: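 Flow cytometry median fluorescence of live singlet cells gave IC50 via 4-parameter fit. Peptides in 0.5% MSA (30 min preincubation, 10 points from ~5 μM) were applied to T47D cells for 1 h, followed by a 2 h exposure to AF647 detection peptide at a fixed 200 nM.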

CCCCCCCCCCCCCCCC(=O)NCC[N+](C)(C)CC(=O)NCCOCCOCC(=O)NCCOCCOCC(=O)NCCCC[C@H](NC(=O)[C@@H]1C[C@@H]2CN1C(=O)[C@H](C(c1ccccc1)c1ccccc1)NC(=O)[C@H](Cc1c[nH]cn1)NC(=O)[C@@H](NC(=O)[C@H](CCC(=O)O)NC(=O)CC(C)C)CC(=O)N2)C(=O)NCCCCc1ccccc1 [compound 191] showed an IC50 [1] of 30 to 100 nM and an IC50 [2] of 100 to 500 nM.

CC(C)CC(=O)N[C@@H](CCC(=O)O)C(=O)N[C@H]1CSSC[C@@H](C(=O)N[C@@H](CCCCNC(=O)COCCOCCNC(=O)COCCOCCNC(=O)[C@H](CN)NC(=O)CCCCCCCCCCCCCCCCC(=O)O)C(=O)NCCCCc2ccccc2)NC(=O)[C@H](C(c2ccccc2)c2ccccc2)NC(=O)[C@H](Cc2c[nH]cn2)NC1=O [compound 192] gave an IC50 [1] of over 500 nM and an IC50 [2] of over 500 nM.

CC(C)CC(=O)N[C@@H](CCC(=O)O)C(=O)N[C@H]1CSSC[C@@H](C(=O)N[C@@H](CCCC[N+](C)(C)C)C(=O)NCCCCc2ccccc2)NC(=O)[C@H](C(c2ccccc2)c2ccccc2)NC(=O)[C@H](Cc2c[nH]cn2)NC1=O [compound 193] showed an IC50 [1] of 100 to 500 nM and an IC50 [2] of 100 to 500 nM.

CCCCCCCCCCCCCCCC(=O)NCCCCCC(=O)NCCCC[C@H](NC(=O)[C@@H]1CSSC[C@H](NC(=O)[C@H](CCC(=O)O)NC(=O)CC(C)C)C(=O)N[C@@H](Cc2c[nH]cn2)C(=O)N[C@@H](C(c2ccccc2)c2ccccc2)C(=O)N1)C(=O)NCCCCc1ccccc1 [compound 194] showed an IC50 [1] of over 500 nM and an IC50 [2] of over 500 nM.

For CCCCCCCCCCCCCCCC(=O)NCC[N+](C)(C)CC(=O)NCCCC[C@H](NC(=O)[C@@H]1CSSC[C@H](NC(=O)[C@H](CCC(=O)O)NC(=O)CC(C)C)C(=O)N[C@@H](Cc2c[nH]cn2)C(=O)N[C@@H](C(c2ccccc2)c2ccccc2)C(=O)N1)C(=O)NCCCCc1ccccc1 [compound 195], the IC50 [1] was 30 to 100 nM and the IC50 [2] was 10 to 100 nM.

For CCCCCCCCCCCCCCCC(=O)N[C@@H](CN)C(=O)NCCOCCOCC(=O)NCCOCCOCC(=O)NCCCC[C@H](NC(=O)[C@@H]1CSSC[C@H](NC(=O)[C@H](CCC(=O)O)NC(=O)CC(C)C)C(=O)N[C@@H](Cc2c[nH]cn2)C(=O)N[C@@H](C(c2ccccc2)c2ccccc2)C(=O)N1)C(=O)NCCCCc1ccccc1 [compound 198], the IC50 [1] was 30 to 100 nM and the IC50 [2] was 0.1 to 10 nM.

For CC(C)CC(=O)N[C@@H](CCC(=O)O)C(=O)N[C@H](C(=O)N[C@@H](Cc1c[nH]cn1)C(=O)N[C@H](C(=O)N1CCC[C@H]1C(=O)N[C@@H](CCCC[N+](C)(C)C)C(=O)NCCCCc1ccccc1)C(c1ccccc1)c1ccccc1)[C@@H](C)O [compound 199], the IC50 [1] was 100 to 500 nM and the IC50 [2] was over 500 nM.

CCCCCCCCCCCCCCCC(=O)N[C@@H](CCCC[N+](C)(C)C)C(=O)NCCCC[C@H](NC(=O)[C@@H]1CCCN1C(=O)[C@@H](NC(=O)[C@H](Cc1c[nH]cn1)NC(=O)[C@@H](NC(=O)[C@H](CCC(=O)O)NC(=O)CC(C)C)[C@@H](C)O)C(c1ccccc1)c1ccccc1)C(=O)NCCCCc1ccccc1 [compound 200] gave an IC50 [1] of 1 to 30 nM and an IC50 [2] of 10 to 100 nM.

For CCCCCCCCCCCCCCCC(=O)N[C@@H](CCCC[N+](C)(C)C)C(=O)NCCOCCOCC(=O)NCCOCCOCC(=O)NCCCC[C@H](NC(=O)[C@@H]1CCCN1C(=O)[C@@H](NC(=O)[C@H](Cc1c[nH]cn1)NC(=O)[C@@H](NC(=O)[C@H](CCC(=O)O)NC(=O)CC(C)C)[C@@H](C)O)C(c1ccccc1)c1ccccc1)C(=O)NCCCCc1ccccc1 [compound 201], the IC50 [1] was 1 to 30 nM and the IC50 [2] was 0.1 to 10 nM.

With CCCCCCCCCCCCCCCC(=O)N[C@@H](CN)C(=O)NCCCC[C@H](NC(=O)[C@@H]1CCCN1C(=O)[C@@H](NC(=O)[C@H](Cc1c[nH]cn1)NC(=O)[C@@H](NC(=O)[C@H](CCC(=O)O)NC(=O)CC(C)C)[C@@H](C)O)C(c1ccccc1)c1ccccc1)C(=O)NCCCCc1ccccc1 [compound 202] the IC50 [1] was 1 to 30 nM and the IC50 [2] was 10 to 100 nM.

In the case of CCCCCCCCCCCCCCCC(=O)N[C@@H](CN)C(=O)NCCOCCOCC(=O)NCCOCCOCC(=O)NCCCC[C@H](NC(=O)[C@@H]1CCCN1C(=O)[C@@H](NC(=O)[C@H](Cc1c[nH]cn1)NC(=O)[C@@H](NC(=O)[C@H](CCC(=O)O)NC(=O)CC(C)C)[C@@H](C)O)C(c1ccccc1)c1ccccc1)C(=O)NCCCCc1ccccc1 [compound 203], the IC50 [1] is reported as 1 to 30 nM and the IC50 [2] is reported as 0.1 to 10 nM.

For CCCCCCCCCCCCCCCC(=O)NCC[N+](C)(C)CC(=O)NCCOCCOCC(=O)NCCOCCOCC(=O)NCCCC[C@H](NC(=O)[C@@H]1CCCN1C(=O)[C@@H](NC(=O)[C@H](Cc1c[nH]cn1)NC(=O)[C@@H](NC(=O)[C@H](CCC(=O)OC)NC(=O)CC(C)C)[C@@H](C)O)C(c1ccccc1)c1ccccc1)C(=O)NCCCCc1ccccc1 [compound 206], the IC50 [1] was 1 to 30 nM and the IC50 [2] was 100 to 500 nM.

Compound CCCCCCCCCCCCCCCC(=O)NCC[N+](C)(C)CC(=O)NCCOCCOCC(=O)NCCOCCOCC(=O)NCCCC[C@H](NC(=O)[C@@H]1CSSC[C@H](NC(=O)[C@H](CCC(=O)O)NC(=O)CC(C)C)C(=O)N[C@@H](Cc2c[nH]cn2)C(=O)N[C@@H](C(c2ccccc2)c2ccccc2)C(=O)N1C)C(=O)NCCCCc1ccccc1 [compound 210] has an IC50 [1] of 30 to 100 nM and an IC50 [2] of 10 to 100 nM.

For CC(=O)NCC[N+](C)(C)CC(=O)NCCOCCOCC(=O)NCCOCCOCC(=O)NCCCC[C@H](NC(=O)[C@@H]1CCCN1C(=O)[C@@H](NC(=O)[C@H](Cc1c[nH]cn1)NC(=O)[C@@H](NC(=O)[C@H](CCC(=O)O)NC(=O)CC(C)C)[C@@H](C)O)C(c1ccccc1)c1ccccc1)C(=O)NCCCCc1ccccc1 [compound 211], the IC50 [1] was 100 to 500 nM and the IC50 [2] was 100 to 500 nM.

With CC(=O)NCC[N+](C)(C)CC(=O)NCCCCCC(=O)NCCCC[C@H](NC(=O)[C@@H]1CCCN1C(=O)[C@@H](NC(=O)[C@H](Cc1c[nH]cn1)NC(=O)[C@@H](NC(=O)[C@H](CCC(=O)O)NC(=O)CC(C)C)[C@@H](C)O)C(c1ccccc1)c1ccccc1)C(=O)NCCCCc1ccccc1 [compound 212] the IC50 [1] was 30 to 100 nM and the IC50 [2] was 10 to 100 nM.

With CCCCCCCCCCCCCCCC(=O)NCC[N+](C)(C)CC(=O)NCCOCCOCC(=O)NCCOCCOCC(=O)NCCCC[C@H](NC(=O)[C@@H]1CCSSC[C@H](NC(=O)[C@H](CCC(=O)O)NC(=O)CC(C)C)C(=O)N[C@@H](Cc2c[nH]cn2)C(=O)N[C@@H](C(c2ccccc2)c2ccccc2)C(=O)N1)C(=O)NCCCCc1ccccc1 [compound 213] the IC50 [1] was 100 to 500 nM and the IC50 [2] was 10 to 100 nM.

Compound CCCCCCCCCCCCCCCC(=O)NCC[N+](C)(C)CC(=O)NCCOCCOCC(=O)NCCOCCOCC(=O)NCCCC[C@H](NC(=O)[C@@H]1CCCN1C(=O)[C@@H](NC(=O)[C@H](Cc1c[nH]cn1)NC(=O)[C@@H](NC(=O)C(CCCC(C)C)CCC(=O)OC)[C@@H](C)O)C(c1ccccc1)c1ccccc1)C(=O)NCCCCc1ccccc1 (some centres unmarked) [compound 214] has an IC50 [1] of over 500 nM and an IC50 [2] of 100 to 500 nM.

With CCCCCCCCCCCCCCCC(=O)NCC[N+](C)(C)CC(=O)NCCOCCOCC(=O)NCCOCCOCC(=O)NCCCC[C@H](NC(=O)[C@@H]1CSSC[C@H](NC(=O)[C@H](CCC(=O)O)NC(=O)CC(C)C)C(=O)N[C@@H](Cc2cnc[nH]2)C(=O)N[C@@H](C(c2ccccc2)c2ccccc2)C(=O)N1)C(=O)NCCCCc1ccccc1 [compound 216] the IC50 [1] was 1 to 30 nM and the IC50 [2] was 10 to 100 nM.

For CC(C)CC(=O)N[C@@H](CCC(=O)O)C(=O)N[C@H](C(=O)N[C@@H](Cc1c[nH]cn1)C(=O)N[C@H](C(=O)N1CCC[C@H]1C(=O)N[C@@H](CCCCN)C(=O)NCCCCc1ccccc1)C(c1ccccc1)c1ccccc1)[C@@H](C)O [compound 217], the IC50 [1] was 100 to 500 nM and the IC50 [2] was over 500 nM.

CCCCCCCCCCCCCCCC(=O)NCC[N+](C)(C)CC(=O)NCCCC[C@H](NC(=O)[C@@H]1CCCN1C(=O)[C@@H](NC(=O)[C@H](Cc1c[nH]cn1)NC(=O)[C@@H](NC(=O)[C@H](CCC(=O)O)NC(=O)CC(C)C)[C@@H](C)O)C(c1ccccc1)c1ccccc1)C(=O)NCCCCc1ccccc1 [compound 218] gave an IC50 [1] of 1 to 30 nM and an IC50 [2] of 10 to 100 nM.

In the case of CCCCCCCCCCCCCCCC(=O)NCC[N+](C)(C)CC(=O)NCCCCCC(=O)NCCCC[C@H](NC(=O)[C@@H]1CCCN1C(=O)[C@@H](NC(=O)[C@H](Cc1c[nH]cn1)NC(=O)[C@@H](NC(=O)[C@H](CCC(=O)O)NC(=O)CC(C)C)[C@@H](C)O)C(c1ccccc1)c1ccccc1)C(=O)NCCCCc1ccccc1 [compound 219], the IC50 [1] is reported as 1 to 30 nM and the IC50 [2] is reported as 10 to 100 nM.

CCCCCCCCCCCCCCCC(=O)NCC[N+](C)(C)CC(=O)NCCOCCOCC(=O)NCCOCCOCC(=O)NCCCC[C@H](NC(=O)[C@@H]1CCCN1C(=O)[C@@H](NC(=O)[C@H](Cc1c[nH]cn1)NC(=O)[C@@H](NC(=O)[C@H](CCC(=O)O)NC(=O)CC(C)C)[C@@H](C)O)C(c1ccccc1)c1ccccc1)C(=O)NCCCCc1ccccc1 [compound 220] was tested, and the IC50 [1] was 1 to 30 nM and the IC50 [2] was 0.1 to 10 nM.
